Measured values as given in US20090258843A1, “Compositions Containing Antiviral Compounds and Methods of Using the Same” (Mallinckrodt Inc., priority 2008, published 2009).

Assay: 5-Fluorouracil solubility in water, UPLC (Example 16 I)
Conditions: water 1 mL, 1-N-methylimidazole 0.1 mL + Naproxen 0.0535 g

- solubility of 5-fluorouracil: 32.4 mg/mL
Structure (SMILES): O=c1[nH]cc(F)c(=O)[nH]1 [5-fluorouracil, 5-fluoro-1H-pyrimidine-2,4-dione]
